Laboratory results from PubChem BioAssay AID588692 (Broad Institute, 2011).
This is a selection; strong and weak results do not stand in their true shares. Some tests of the compounds listed are not included; inactive here does not mean inactive elsewhere. Activity calls are given as the source filed them.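 Rule for the calls: active = mean luciferase reporter signal, scaled so untreated is 0 and the glycosylation-blocking control 100, at or above a set limit in every replicate; inconclusive = mean reaches the limit but not every replicate does; inactive = mean below the limit.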

Experiment: D54 reporter luminescence gain compounds – D54 ERlucT cells, set 2, N-linked glycosylation inhibitor project, primary screen (AID 588692);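 note: luciferase carries N-glycosylation sites so blocking glycosylation raises the light; 0% = median of neutral control wells and 100% = median of 100 nM tunicamycin wells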
Details: D54 ERlucT glycosylation luciferase reporter, 24 h; at 12.5 µM; active compounds read high; percent of 100 nM tunicamycin response
In the case of O=C(NCC1(N2CCCCC2)CCCCC1)c1cccc(Br)c1, the reporter increase is reported as inactive: -5.88%. With CCN1CCCC(OC(=O)C2(O)c3ccccc3C=Cc3ccccc32)C1 (stereo unspecified) the reporter increase was inactive: -1.41%. For Cc1cc(C(=O)NCC2(N3CCCCC3)CCCCC2)ccc1[N+](=O)[O-], the reporter increase was inactive: -7.1%. With COc1ccc(C(=O)NCC2(N(C)C)CCCCC2)cc1 the reporter increase was inactive: 0.906%. In the case of O=C(NCC1(N2CCCCC2)CCCCC1)c1cc(F)c(F)cc1Cl, the reporter increase is reported as inactive: -1.03%. For C=CCN1CCN(CCOC(=O)C(O)(c2ccccc2)c2ccccc2)CC1, the reporter increase was inactive: 0.234%. With CN(C)c1ccc(C(=O)NCC2(N(C)C)CCCCC2)cc1 the reporter increase was inactive: 1.78%. With CN(C)C1CCCC1OC(=O)C(O)(c1ccccc1)c1ccccc1 (stereo unspecified) the reporter increase was inactive: -0.924%. With Cc1ccccc1C(=O)NCC1(N2CCCCC2)CCCCC1 the reporter increase was inactive: 1.54%. In the case of Cc1ccc(C(=O)NCC2(N3CCCCC3)CCCCC2)cc1, the reporter increase is reported as inactive: -3.24%. With CC(C)N1C(=O)CC2(CCN(CCOC(=O)C(O)(c3ccccc3)c3ccccc3)CC2)C1=O the reporter increase was inactive: -2.49%. For COc1cc(SC)ccc1C(=O)NCC1(N(C)C)CCCCC1, the reporter increase was inactive: 0.964%. In the case of CCN(CC)CC(C)C(C)OC(=O)C(O)(c1ccccc1)c1ccccc1 (stereo unspecified), the reporter increase is reported as inactive: -0.854%. With CN1[C@@H]2CC[C@H]1CC(OC(=O)C(O)(c1ccccc1)c1ccccc1)C2 (stereo partly specified) the reporter increase was inactive: -0.912%. With O=C(NCC1(N2CCCCC2)CCCCC1)c1cc([N+](=O)[O-])ccc1Cl the reporter increase was inactive: -7.62%. For CN(C)c1cccc(C(=O)NCC2(N(C)C)CCCCC2)c1, the reporter increase was inactive: -0.916%. In the case of O=C(OCCN1CCCC1)C(O)(c1ccccc1)c1ccccc1, the reporter increase is reported as inactive: -0.197%. With CC(C)Oc1ccc(C(=O)NCC2(N(C)C)CCCCC2)cc1 the reporter increase was inactive: -3.01%. For COc1ccc(Br)c(C(=O)NCC2(N3CCCCC3)CCCCC2)c1, the reporter increase was inactive: -0.433%. For C=C(C)C#CC(O)(C(=O)OC1CCN(C)CC1)c1ccccc1 (stereo unspecified), the reporter increase was inactive: -0.223%. In the case of O=C(OC1CN2CCC1CC2)C(CO)(c1ccccc1)c1ccccc1 (stereo unspecified), the reporter increase is reported as inactive: 2.68%. In the case of O=C(NCC1(N2CCCCC2)CCCCC1)c1cccc(Cl)c1, the reporter increase is reported as inactive: -6.17%. For COc1ccc(Cl)cc1C(=O)NCC1(N(C)C)CCCCC1, the reporter increase was inactive: 2.51%. In the case of COc1cccc(C(=O)NCC2(N3CCCCC3)CCCCC2)c1, the reporter increase is reported as inactive: -3.79%. With COc1cc(C(=O)NCC2(N(C)C)CCCCC2)c([N+](=O)[O-])cc1OC the reporter increase was inactive: 0.75%. With CN(C)C1(CNC(=O)c2ccc(Br)cc2)CCCCC1 the reporter increase was inactive: -2.54%.
